Results published in US9517230B2, “Small molecule RNase inhibitors and methods of use” (UNIVERSITY OF ROCHESTER, priority 2011, dated 2016).

System: HepG2 human hepatocytes
Test: HepG2 MTT cytotoxicity assay
Format: cell-based
Conditions: 1×, 2×, 4× the MIC value for 48 hours

Structure (SMILES): O=C1NC(=S)N(c2ccc(Cl)cc2)C(=O)C1=Cc1ccc(-c2ccccc2C(=O)O)o1
- human cell cytotoxicity / cell survival (in words): elicits human toxic effects
